Here are results for 84 compounds from PubChem BioAssay AID540303 (National Center for Advancing Translational Sciences (NCATS), 2011).

Only a part is listed here, and it is no random draw. Records with an inconclusive call do not appear. Where a call stands in place of a potency, no number is given. Calls of active or inactive are those of the source. Calls follow the shape of the dose curve; as a rule, active = well fitted inhibition curve with a large enough effect; inconclusive = small, poorly fitted or top-dose-only effect; inactive = no such curve, though single readings can be large or run the other way; tested in mouse RAW 264.7 cells.
Potency is read from the fitted curve at half-maximal effect.

The test is described as follows: qHTS for Inhibitors of Cell Surface uPA Generation. Also: nearly all actives have a fitted effect of over 55% in size. The following applies: cell surface uPA generation assay; series mostly up to 38.3 µM. An excerpt: The overall objective of this project is to perform a quantitative high throughput screen (qHTS) to identify novel compounds that inhibit the generation of cell surface urokinase activity. The urokinase plasminogen activator (uPA) is one of the two primary endogenous systems that mediate plasminogen activation into plasmin. Members of this system, including uPA and its receptor (uPAR), are overexpressed in several malignant tumors. This system plays a major role in adhesion, migration, invasion and metastasis of cancer cells. Small molecule inhibitors of the uPA system will serve as probes to understand the molecular mechanisms of the uPA cascade and better understanding the microenvironmental circumstances that facilitate the activation of plasminogen by uPA, and finally may provide novel candidate agents for anticancer drug therapy.
[…] […] Upon inhibition of the uPA activation cascade, the subsequent cell surface uPA activity-dependent translocation of LF into the cytoplasm is inhibited. ATP-Lite is used to measure intracellular ATP concentrations, which remain increased if LF entry into the cytoplasm is inhibited. This validation assay was performed using a small set of validation compounds.
NIH Chemical Genomics Center [NCGC]
NIH Molecular Libraries Probe Centers Network [MLPCN]
Assay Submitter (PI): Thomas Bugge, National Institute of Dental and Craniofacial Research, NIH
Cultured RAW 264.7 were dispensed into 1536-well clear bottom, white walled tissue culture plates at a density of 4000 cells/well and were incubated overnight (12-16 h) at 37 C in a 5% CO2 incubator. Serially diluted compounds in 23 nl DMSO were added to cells. […] Compound and reagent-treated plates were incubated for 24 h at 37 C in a 5% CO2 incubator. Perkin Elmer ATPlitetrade mark 1 step (3 ul) was then added to each well. Luminescence was detected using a Perkin Elmer ViewLuxtrade mark plate reader.
1.Dispensing RAW 264.7 cells into 1536-well, white walled tissue culture plates at a density of 4000 cells/well (4 uL).
2.Incubation at 37 C in a 5% CO2 incubator overnight.
3.Serially diluting compounds (1:5 serial dilution; 0.0024 uM to […] final concentration) in 23 nl DMSO.
5.Incubating the compound and reagent-treated plates for 24 hours at 37 C in a 5% CO2 incubator.
6.Adding ATP-Lite (3 ul).
7.Reading plates by ViewLux with an exposure length of 5 seconds.
A general note: Quantitative high-throughput screening tests each substance at several concentrations.
`CCCCCOc1ccc(NP(C)(=O)Oc2ccc(Cl)cc2Cl)cc1` (centres undefined): the Potency entry is “inactive”.
For the compound `CP(=O)(Nc1ccccc1)Oc1ccc(F)cc1` (centres undefined), the Potency entry is “inactive”.
Turning to `CCN(CC)CCCOC(=O)C(O)(c1ccccc1)C1CCCCC1` (centres undefined), the Potency result is “inactive”.
Turning to `Cc1c([N+](=O)[O-])cc([N+](=O)[O-])c(Br)c1[N+](=O)[O-]`, the Potency result is “inactive”.
With `COc1ccc(OP(C)(=O)Nc2ccc(SC(F)(F)F)cc2)cc1` (centres undefined), the Potency result is “inactive”.
As for `CCOC(=O)c1ccc(NP(C)(=O)Oc2ccc(F)cc2)cc1` (centres undefined), the Potency result was “inactive”.
Regarding `O=C(OCCN1CCN(CCOCc2ccccc2)CC1)C(O)(c1ccccc1)c1ccccc1`, the Potency entry is “inactive”.
The result for `CC(C)c1ccc(OP(C)(=O)Nc2ccc(SC(F)(F)F)cc2)cc1` (centres undefined) reads “inactive”; that for `CP(=O)(Nc1ccccc1F)Oc1ccccc1` (centres undefined), “inactive”; that for `Cc1ccccc1NP(C)(=O)Nc1ccccc1C`, “inactive”.
For `CP(=O)(Nc1ccc2c(c1)OCCO2)Oc1ccccc1` (centres undefined), the Potency entry is “inactive”.
For the compound `CCOP(C)(=S)SCC(=O)NC(C)(CC)C(=O)O` (centres undefined), the Potency result was “inactive”.
`CP(=O)(Nc1ccc(SC(F)(F)F)cc1)Oc1ccc(F)cc1` (centres undefined): the Potency result is “inactive”.
As to `Cc1c(C(c2ccc3c(c2)OCO3)c2c(C)n(C)n(-c3ccccc3)c2=O)c(=O)n(-c2ccccc2)n1C.O=[N+]([O-])c1cc([N+](=O)[O-])c(O)c([N+](=O)[O-])c1`, the Potency entry is “inactive”.
For the compound `Cc1cc(-c2cccc3ccccc23)c(C)cn1.O=[N+]([O-])c1cc([N+](=O)[O-])c(O)c([N+](=O)[O-])c1`, the Potency entry was “inactive”.
Take `O=[N+]([O-])c1ccc(OP2(=O)COCCO2)cc1` (centres undefined): the Potency result is “inactive”.
For `COc1ccc(NP(C)(=O)Oc2ccccc2OC)cc1` (centres undefined), the Potency result is “inactive”.
The result for `CN(C)CCOC(=O)C(O)(c1ccccc1)C1CCCCC1` (centres undefined) reads “inactive”; that for `COc1ccc(OP(C)(=O)Nc2cccc(Br)c2)cc1` (centres undefined), “inactive”.
For `CCOC(=O)c1ccc(NP(C)(=O)Oc2ccc(Cl)cc2)cc1` (centres undefined) the value was “inactive”.
Take `Nc1ccc2c(ccc3cccnc32)n1.O=[N+]([O-])c1cc([N+](=O)[O-])c(O)c([N+](=O)[O-])c1`: the Potency entry is “inactive”.
`CN(C)C(=O)c1c([N+](=O)[O-])cc([N+](=O)[O-])cc1[N+](=O)[O-]`: the Potency is active: 10 µM.
As for `CP(=O)(Nc1ccc(Cl)cc1)Oc1ccc(F)cc1` (centres undefined), the Potency entry was “inactive”.
Consider `COc1ccccc1OP(C)(=O)Nc1ccccc1Br` (centres undefined), for which the Potency result is “inactive”.
Consider `CP(=O)(Oc1ccccc1)N1CCOC1=O` (centres undefined), for which the Potency entry was “inactive”.
The result for `CCc1ccc(OP(C)(=O)Nc2cccnc2)cc1` (centres undefined) reads “inactive”.
The result for `COc1ccccc1OP(C)(=O)Nc1c(C)n(C)n(-c2ccccc2)c1=O` (centres undefined) reads “inactive”.
Consider `O=C(OCCCN1CCCC1)C(O)(c1ccccc1)C1CCCCC1` (centres undefined), for which the Potency result was “inactive”.
Take `CCN(CC)CC(O)COC(=O)C(O)(c1ccccc1)C1CCCCC1` (centres undefined): the Potency entry was “inactive”.
For `COc1ccc(OP(C)(=O)Nc2ccc(Br)cc2)cc1` (centres undefined) the value was “inactive”; for `CCc1ccc(OP(C)(=O)O)cc1`, “inactive”; for `CP(=O)(Nc1ccccn1)Oc1ccccc1` (centres undefined), “inactive”.
With `COc1ccccc1OP(C)(=O)Nc1ccc(C)cc1C` (centres undefined), the Potency entry is “inactive”.
As for `O=[N+]([O-])c1cc([N+](=O)[O-])c(Nc2ccccn2)c([N+](=O)[O-])c1`, the Potency entry is “inactive”.
For `Cc1c(NP(C)(=O)Oc2ccc(C(C)C)cc2)c(=O)n(-c2ccccc2)n1C` (centres undefined) the value was “inactive”; for `CN(C)CCOC(=O)C(O)(c1ccccc1)C1CCCC1` (centres undefined), “inactive”; for `COc1ccc(OP(C)(=O)Nc2ccccn2)cc1` (centres undefined), “inactive”.
For `COc1ccccc1OP(C)(=O)Nc1ccc(Br)cc1` (centres undefined) the value was “inactive”; for `CP(=O)(OCCOc1ccccc1)OCCOc1ccccc1`, “inactive”; for `CCCCCCCCCCCCCCCC1C[N+](C)(C)CCOP(C)(=O)O1` (centres undefined), “inactive”.
As for `CP(=O)(Nc1ccc(Cl)cc1Cl)Oc1ccccc1` (centres undefined), the Potency result is “inactive”.
`COc1ccc(OP(C)(=O)Nc2ccccc2Br)cc1` (centres undefined): the Potency entry was “inactive”.
In the case of `COc1ccccc1OP(C)(=O)Nc1ccc(C)c(C)c1` (centres undefined), the Potency result was “inactive”.
`Cc1cc(C)cc(OP(C)(=O)Nc2cccc(C(F)(F)F)c2)c1` (centres undefined): the Potency entry was “inactive”.
With `COc1ccccc1OP(C)(=O)Nc1cc(Cl)ccc1C` (centres undefined), the Potency entry was “inactive”.
In the case of `COc1ccc(OP(C)(=O)Nc2cccc(F)c2)cc1` (centres undefined), the Potency entry was “inactive”.
As for `Cc1cc(C)cc(OP(C)(N)=O)c1` (centres undefined), the Potency entry was “inactive”.
For `CCOC(=O)c1ccc(NP(C)(=O)Oc2ccccc2)cc1` (centres undefined) the value was “inactive”; for `COc1ccccc1OP(C)(=O)Nc1ccc(C)cc1` (centres undefined), “inactive”; for `Cc1ccc(NP(C)(=O)Oc2ccccc2)c(C)c1` (centres undefined), “inactive”.
Regarding `CC(C)(C)c1ccc(OP(C)(=O)Nc2ccc(SC(F)(F)F)cc2)cc1` (centres undefined), the Potency result is “inactive”.
Consider `Cc1cccc(C)c1OP(C)(N)=O` (centres undefined), for which the Potency result was “inactive”.
Regarding `O=[N+]([O-])c1ccc2c(c1)C=Nc1ccccc1O2`, the Potency result was “inactive”.
For `O=[N+]([O-])c1cc([N+](=O)[O-])c(Nc2cccnc2)c([N+](=O)[O-])c1` the value was active: 12.6 µM; for `CCN(CC)CCCOC(=O)C(O)(c1ccccc1)c1ccccc1`, “inactive”.
`CP(=O)(Nc1ccccn1)Oc1ccc(Cl)cc1` (centres undefined): the Potency result was “inactive”.
The result for `CCOP(C)(=S)SCC(=O)NC(C)C(=O)O` (centres undefined) reads “inactive”.
The result for `CCOC(=O)c1ccc(NP(C)(=O)Oc2ccc(OC)cc2)cc1` (centres undefined) reads “inactive”; that for `O=[N+]([O-])c1cc([N+](=O)[O-])c(O)c([N+](=O)[O-])c1.c1ccc(Oc2ccncc2)cc1`, “inactive”; that for `CCc1ccc(OP(C)(=O)N2CCN(c3ccc([N+](=O)[O-])cc3)CC2)cc1` (centres undefined), “inactive”.
As to `CP(=O)(NC(=O)Nc1ccccc1)Oc1ccccc1` (centres undefined), the Potency entry was “inactive”.
Regarding `Cc1cc(C)cc(OP(C)(=O)Nc2ccc(SC(F)(F)F)cc2)c1` (centres undefined), the Potency result was “inactive”.
Turning to `Cc1cccc(C)c1OP(C)(=O)Nc1ccc(SC(F)(F)F)cc1` (centres undefined), the Potency result is “inactive”.
In the case of `CP(=O)(Nc1ccc(SC(F)(F)F)cc1)Oc1ccc(Cl)cc1` (centres undefined), the Potency entry was “inactive”.
Turning to `CP(=O)(Oc1ccccc1)OC(c1ccccc1)C(F)(F)F` (centres undefined), the Potency result was “inactive”.
In the case of `COc1ccccc1OP(C)(=O)Nc1ccccc1` (centres undefined), the Potency result is “inactive”.
The result for `CP(=O)(Nc1ccccc1Br)Oc1ccccc1` (centres undefined) reads “inactive”; that for `CP(=S)(Nn1cnnc1)Oc1ccccc1` (centres undefined), “inactive”.
For `CP(=O)(Nc1ccc(SC(F)(F)F)cc1)Oc1ccccc1` (centres undefined), the Potency result was “inactive”.
The result for `CCCOc1ccc(NP(C)(=O)Oc2ccc(Cl)cc2)cc1` (centres undefined) reads “inactive”; that for `COc1ccccc1OP(C)(=O)Nc1c(C)cccc1C` (centres undefined), “inactive”; that for `CN1CCCCC1COC(=O)C1(O)c2ccccc2CCc2ccccc21` (centres undefined), “inactive”.
As to `O=[N+]([O-])c1cc([N+](=O)[O-])c(Nc2nnnn2CCO)c([N+](=O)[O-])c1`, the Potency result was “inactive”.
On to `CC1=C2N=C(C=C3N=C(C(C)=C4[N-][C@@](C)([C@@H]5N=C1[C@](C)(CCC(=O)NC[C@@H](C)OP(=O)([O-])O[C@H]1[C@@H](O)[C@@H](n6cnc7cc(C)c(C)cc76)O[C@@H]1CO)[C@H]5CC(N)=O)[C@@](C)(CC(N)=O)[C@@H]4CCC(N)=O)[C@@](C)(CC(N)=O)[C@@H]3CCC(N)=O)C(C)(C)[C@@H]2CCC(N)=O.[C-]#N.[Co+3]`, for which the Potency entry was “inactive”.
Turning to `Cc1nc2ccc3ccccc3c2s1.O=[N+]([O-])c1cc([N+](=O)[O-])c(O)c([N+](=O)[O-])c1`, the Potency entry was “inactive”.
Consider `O=[N+]([O-])c1cc([N+](=O)[O-])c(-c2cnn(-c3ccccc3)c2)c([N+](=O)[O-])c1`, for which the Potency entry is “inactive”.
The result for `O=[N+]([O-])c1cc([N+](=O)[O-])c(-n2nnc3ccccc32)c([N+](=O)[O-])c1` reads “inactive”; that for `CP(=O)(Nc1cccc(Br)c1)Oc1ccccc1` (centres undefined), “inactive”.
For `Cc1cc(C)cc(OP(C)(=O)Nc2ccccn2)c1` (centres undefined), the Potency entry is “inactive”.
For `Cc1ccc(C)c(NP(C)(=O)Oc2ccccc2)c1` (centres undefined), the Potency entry is “inactive”.
The result for `Cc1cc(C)cc(OP(C)(=O)Nc2ccc(C)cc2C)c1` (centres undefined) reads “inactive”; that for `CCOC(=O)c1ccc(NP(C)(=O)Oc2cc(C)cc(C)c2)cc1` (centres undefined), “inactive”; that for `COc1ccccc1OP(C)(=O)Nc1cccc(Br)c1` (centres undefined), “inactive”.
Consider `CC1=NCCc2c1[nH]c1ccccc21.O=[N+]([O-])c1cc([N+](=O)[O-])c(O)c([N+](=O)[O-])c1`, for which the Potency result is “inactive”.
